Assay results taken from patent US10800816B2 (Baxalta GmbH, priority 2012, dated 2020).

Assays:
[1] = Solubility; conditions: formulated in 25 mm HEPES, pH 7.35, 175 mM NaCl
[2] = test system: C57Bl/6NCrl mice; experiment: Nail clip bleeding study in mice; type: in vivo, mouse; conditions: 60 minutes collection
Procedure: Ten week old C57Bl/6NCrl mice were housed for two weeks prior to the study. […] The animals were anaesthetized with 80 mg/kg pentobarbital ten minutes prior to the nail clip. To achieve bleeding, the nail of the small toe of the right hind paw was removed. The paw was submerged in a 0.9% NaCl solution for blood collection for a period of 60 minutes. Blood loss was quantified after lysis by spectrophotometry. The temperature was kept constant at 37° C. over the course of the experiment.
Animals were anaesthetized 10 minutes before nail clip with 80 mg/kg pentobarbital (i.p.). At time=0 minutes, the nail of the small toe of the right hind paw was cut just before the nail bed. The paw was transferred to a vial prefilled with 0.9% NaCl solution. Samples of blood were collected for analysis during the first 30 minutes following the nail clip and the next 30 minutes thereafter, and mean collected volume for the groups was calculated and compared. Mean blood loss in vehicle treated mice was about 30.5 μl over the first 30 minutes, 52.1 μl over the second 30 minute period, resulting in about 82.6 μl of blood loss over 60 minutes.

[3] = Plasma stability in human plasma
[4] = Pharmacokinetics in C57Bl6 mice; type: in vivo, mouse; conditions: 10 mg/kg i.v., FIG. 31
[5] = Plasma stability in mouse plasma
[6] = test system: TFPI; experiment: FXa inhibition assay (human TFPI); conditions: read-out: FXa Inhibition IC50; Table 10
[7] = test system: TFPI; experiment: % Inhibition @ 2.5µM
[8] = test system: TFPI; experiment: FXa Inhibition assay | EC50 (µM)
[9] = test system: TFPI; experiment: % Inhibition @ 0.63µM

EC50 [8] [nM]	Substance	Solubility (mg/ml) [1]	blood loss, Mean ([2]; 10 mg/kg i.v.) [µL]	blood loss, Mean ([2]; 10 mg/kg s.c.) [µL]	Plasma Stability (half life in minutes) human [3] [h]	plasma concentration after intravenous administration [4]	Plasma Stability (half life in minutes) mouse [5] [h]	IC50 [6] [nM]	% Inhibition @ […] [7] [%]	% Inhibition @ […] [9] [%]
–	Ac-FQSKGNVFVDGYFERL-Aib-AKLC(PEG(40 kD))-NH2 [JBT1855]	>1.00* mg/ml	29.9	31.7	>2	present at high concentrations in mouse plasma at 100 minutes post-administration	>2	70	–	–
500	Ac-FQSKGNVFVDGYFERL-Dap-AKL-NH2 (SEQ ID NO: 56) [JBT0697]	–	–	–	–	–	–	–	73	52
410	Ac-FQSKGNVFVDGYFERL-Orn-AKL-NH2 (SEQ ID NO: 57) [JBT0699]	–	–	–	–	–	–	–	–	57

Marks after values point to notes of the source that are not given here.
